Patent US20110159111A1, “PHARMACEUTICAL COMBINATIONS” (priority 2006, published 2011)

Protein sequences, listed by entry. Tags and fused reporters are not part of them. Residues count along the entry.
UniProt P12931, whole entry: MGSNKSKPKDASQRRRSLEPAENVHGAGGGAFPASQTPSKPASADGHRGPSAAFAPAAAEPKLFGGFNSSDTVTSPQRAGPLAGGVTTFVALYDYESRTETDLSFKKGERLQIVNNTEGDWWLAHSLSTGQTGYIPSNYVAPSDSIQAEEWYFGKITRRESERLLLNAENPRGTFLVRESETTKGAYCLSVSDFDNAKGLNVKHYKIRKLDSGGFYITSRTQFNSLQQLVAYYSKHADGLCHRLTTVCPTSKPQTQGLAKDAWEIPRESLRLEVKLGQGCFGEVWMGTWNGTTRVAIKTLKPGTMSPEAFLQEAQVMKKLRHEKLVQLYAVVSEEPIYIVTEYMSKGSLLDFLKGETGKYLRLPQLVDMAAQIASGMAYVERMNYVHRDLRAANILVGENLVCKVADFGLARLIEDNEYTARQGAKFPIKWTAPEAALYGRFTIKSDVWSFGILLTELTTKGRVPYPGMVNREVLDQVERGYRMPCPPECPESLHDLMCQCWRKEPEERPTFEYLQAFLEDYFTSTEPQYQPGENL
UniProt P35968, 20-1356: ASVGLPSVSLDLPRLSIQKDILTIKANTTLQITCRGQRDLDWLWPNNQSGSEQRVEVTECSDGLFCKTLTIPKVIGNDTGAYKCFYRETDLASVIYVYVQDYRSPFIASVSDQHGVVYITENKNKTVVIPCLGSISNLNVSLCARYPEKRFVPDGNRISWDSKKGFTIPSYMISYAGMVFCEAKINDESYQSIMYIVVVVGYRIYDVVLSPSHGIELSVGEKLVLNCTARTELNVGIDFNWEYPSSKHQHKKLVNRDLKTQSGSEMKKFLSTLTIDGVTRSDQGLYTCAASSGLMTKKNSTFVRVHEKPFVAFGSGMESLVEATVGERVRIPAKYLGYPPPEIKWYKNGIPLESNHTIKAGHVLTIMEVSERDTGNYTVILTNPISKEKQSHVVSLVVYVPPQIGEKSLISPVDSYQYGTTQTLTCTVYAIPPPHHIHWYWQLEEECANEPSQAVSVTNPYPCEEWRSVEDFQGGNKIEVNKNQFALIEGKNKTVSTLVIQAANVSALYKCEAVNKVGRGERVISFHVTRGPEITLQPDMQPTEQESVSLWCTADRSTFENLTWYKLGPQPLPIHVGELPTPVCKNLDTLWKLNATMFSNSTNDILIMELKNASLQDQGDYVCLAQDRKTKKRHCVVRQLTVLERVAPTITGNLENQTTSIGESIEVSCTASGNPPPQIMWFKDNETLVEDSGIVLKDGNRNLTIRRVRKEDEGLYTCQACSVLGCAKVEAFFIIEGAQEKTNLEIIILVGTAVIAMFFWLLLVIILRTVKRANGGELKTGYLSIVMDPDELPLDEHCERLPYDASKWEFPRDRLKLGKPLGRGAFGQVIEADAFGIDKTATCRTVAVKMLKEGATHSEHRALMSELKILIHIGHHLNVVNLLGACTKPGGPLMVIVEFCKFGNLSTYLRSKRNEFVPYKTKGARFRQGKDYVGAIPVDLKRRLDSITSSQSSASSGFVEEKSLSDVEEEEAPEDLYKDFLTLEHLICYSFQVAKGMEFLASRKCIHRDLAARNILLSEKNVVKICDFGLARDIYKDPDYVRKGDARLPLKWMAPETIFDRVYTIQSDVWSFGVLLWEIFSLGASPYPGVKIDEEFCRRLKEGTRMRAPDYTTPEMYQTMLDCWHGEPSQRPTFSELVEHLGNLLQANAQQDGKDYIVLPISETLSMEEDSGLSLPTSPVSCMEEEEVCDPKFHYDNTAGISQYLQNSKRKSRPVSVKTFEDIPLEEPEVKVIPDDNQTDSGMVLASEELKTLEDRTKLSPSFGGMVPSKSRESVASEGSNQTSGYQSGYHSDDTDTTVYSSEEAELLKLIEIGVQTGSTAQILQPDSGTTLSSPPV

Assays:
cSrc = cSrc (Homo sapiens, UniProt P12931); experiment: biochemical
VEGFR2 (KDR) = VEGFR2 (KDR) (Homo sapiens, UniProt P35968); experiment: biochemical

**Q.** How did the IC50 (cSrc) turn out when `O=C(Nc1c[nH]nc1-c1nc2cc(CN3CCOCC3)ccc2[nH]1)NC1CC1` [compound of formula (I), 1-cyclopropyl-3-[3-(5-morpholin-4-ylmethyl-1H-benzoimidazol-2-yl)-1H-pyrazol-4-yl]-urea] was run?
**A.** < 100 nM

**Q.** What about the IC50 (VEGFR2 (KDR)) of the same compound?
**A.** < 100 nM
